From patent US10759809B2 (priority 2017, dated 2020)

System: Kunming mice
Assay: Determination of analgesic activity by hot plate assay of mice
Format: in vivo
Conditions: male Kunming mice, hot plate 55° C., by gavage, 1 hour after administration, bliss method

Compound	ED50
[2H]c1c([2H])c2c3c(c1O)O[C@H]1[C@@]4(OC)CC[C@@]5(C[C@@H]4[C@](C)(O)C(C)(C)CC)[C@@H](C2)N(CC2CC2)CC[C@]315	1.96 ± 2.01 mg/kg
[2H]C([2H])([2H])Oc1ccc2c3c1O[C@H]1[C@@]4(OC)CC[C@@]5(C[C@@H]4[C@](C)(O)C(C)(C)CC)[C@@H](C2)N(C([2H])([2H])C2CC2)CC[C@]315	4.45 ± 4.02 mg/kg
CCC(C)(C)[C@@](C)(O)[C@H]1C[C@@]23CC[C@]1(OC)[C@@H]1Oc4c(O)ccc5c4[C@@]12CCN(CC1CC1)[C@@H]3C5	2.60 ± 3.77 mg/kg
[2H]C([2H])([2H])Oc1ccc2c3c1OC1[C@@]4(OC)CC[C@@]5(C[C@@H]4[C@](C)(O)C(C)(C)C)[C@@H](C2)N(C([2H])([2H])C2CC2)CC[C@]315 (stereo partly shown)	21.10 ± 2.87 mg/kg
[2H]C([2H])([2H])Oc1ccc2c3c1OC1[C@@]4(OC)CC[C@@]5(C[C@@H]4[C@](C)(O)C(C)(C)C)[C@@H](C2)N(CC2CC2)CC[C@]315 (stereo partly shown)	19.28 ± 17.00 mg/kg
[2H]C([2H])([2H])Oc1ccc2c3c1O[C@H]1[C@@]4(OC)CC[C@@]5(C[C@@H]4[C@](C)(O)C(C)(C)CC)[C@@H](C2)N(CC2CC2)CC[C@]315	4.76 ± 3.78 mg/kg
[2H]C([2H])(C1CC1)N1CC[C@]23c4c5ccc(OC)c4O[C@H]2[C@@]2(OC)CC[C@@]3(C[C@@H]2[C@](C)(O)C(C)(C)C)[C@H]1C5	4.61 ± 2.03 mg/kg
